Only some compounds are listed: those with a hit (about 0.43% of all), similar ones and a draw of the others.
GIV Gai3 FP: inhibitors of GIV GBA-motif binding to rat Galpha-i3; P08753; Galpha-i3/FITC-GIV peptide fluorescence polarization, 90 min; hits give low values; scaled: aluminum fluoride 0%, vehicle 100%; percent of control (FP), % (test concentration not listed); 0.42% of 210,000 active; AID 1224905;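 active = replicate mean at 85% of control or lower, very high polarization wells dropped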;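 also: wells of about 15 µL received 100 nL stock; the first replicate is given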
HCMV NEC inh: cytomegalovirus nuclear egress complex inhibition. HTRF UL50-UL53 interaction, normalized percent inhibition. 190,000 tested, 0.15% active. inhibition, % (test concentration not listed); in the data active = inhibition above about 27%, passing the limit was not always enough
Hits are given with their value; – = inactive; · = no result given.

SMILES | GIV Gai3 FP | HCMV NEC inh
CCN(CC)c1ccc(/C=c2\sc3nc(-c4ccco4)nn3c2=O)cc1 | -83 | –
CN(C)c1ccc(/C=c2/sc3nc(-c4ccc(Cl)cc4)nn3c2=O)cc1 | – | ·
O=C(Cn1ncc2c(=O)oc3ccccc3c21)Nc1cccc(Cl)c1 | – | –
Cc1cc(C(Nc2ccccn2)c2ccsc2)c(NC(=O)c2ccccc2)s1 (stereo not drawn) | – | –
Cn1cccc1/C=C1\CCc2ccccc2C1=O | – | ·
Cn1cccc1/C=C1\CC/C(=C\c2cccn2C)C1=O | -75 | ·
Cc1cc(C)n(C(=O)C(C)NC(=O)c2ccccc2)n1 (stereo not drawn) | – | –
COC(=O)CSc1nc2ccccc2[nH]1 | – | –
O=C(O)CSCc1nc2ccccc2[nH]c1=O | – | 52
O=C(O)CSCc1nc2ccccc2[nH]1 | · | –
COC(=O)CSCc1nc2ccccc2[nH]c1=O | – | 57
N#Cc1ccc(CSc2ncnc3ccccc23)cc1 | · | –
COc1ccc(OC)c(/C=C2/C(=O)NC(=O)N(c3ccc(Br)c(C)c3)C2=O)c1 | – | –
O=C1/C(=C/c2ccc(O)cc2)SC(=S)N1CC1CCCO1 (stereo not drawn) | -24 | ·
O=C1/C(=C/C2CC=CCC2)SC(=S)N1CC1CCCO1 (stereo not drawn) | – | ·
O=C(Nc1c(C(=O)N2CCN(Cc3ccccc3)CC2)oc2ccccc12)c1ccccc1 | – | –
COc1cc(NC(=O)c2cc(C(F)(F)F)n(C)n2)cc(OC)c1 | – | –
CCN(CC)c1ccc2cc(C(=O)NC3CCCCC3)c(=O)oc2c1 | · | –
CCN(CC)c1ccc2cc(NC(=O)CCC(=O)O)c(=O)oc2c1 | 84 | –
CCN(CC)c1ccc2cc(C(=O)Nc3ccc(NC(C)=O)cc3)c(=O)oc2c1 | 83 | –
CCN(CC)c1ccc2cc(C(=O)Nc3cccc(C(F)(F)F)c3)c(=O)oc2c1 | – | –
CCOC(=O)C1=C(C)N=c2s/c(=C\c3ccc(Br)o3)c(=O)n2C1c1cc(OC)ccc1OC (stereo not drawn) | – | –
CCN1CCN(C(=O)c2ccc(N3CCNCC3)c(NS(=O)(=O)c3ccc(F)cc3)c2)CC1 | – | –
CCNc1cccc2c1C(=O)N(C)C2=O | 6.2 | –
CN1C(=O)c2cccc(NC(=O)CSc3ccc(F)cc3)c2C1=O | – | –
SMILES | GIV Gai3 FP | HCMV NEC inh
COc1ccc(CNC(=O)c2oc3ccccc3c2-n2cccc2)cc1 | · | –
C[C@]12C=CC(=O)C=C1CC[C@H]1[C@@H]3CC(O)[C@@](O)(C(=O)CO)[C@@]3(C)CC(O)[C@]12F (stereo partly drawn) | · | –
O=c1oc2c(CN3CCCC3)c(O)ccc2cc1-c1ccccc1 | – | ·
CCOc1cccc2cc(-c3nc4ccccc4s3)c(=O)oc12 | – | ·
CC1CCCN(Cc2c(O)ccc3cc(-c4nc5ccccc5s4)c(=O)oc23)C1 (stereo not drawn) | -32 | –
CCN(CC)Cc1c(O)ccc2cc(-c3nc4ccccc4s3)c(=O)oc12 | -18 | ·
Cn1c(C(C#N)/C(=N\S(=O)(=O)c2ccccc2)c2ccccc2)nc2ccccc21 (stereo not drawn) | · | –
Cc1c(NC(=O)C(Cc2ccccc2)N2C(=O)C3C4C=CC(C4)C3C2=O)c(=O)n(-c2ccccc2)n1C (stereo not drawn) | – | –
Cc1ccccc1NC(=O)C(C)Sc1nc2ccccc2c(=O)n1C (stereo not drawn) | – | –
CC(Sc1nc2ccccc2c(=O)n1C)C(=O)Nc1ccc2c(c1)OCCO2 (stereo not drawn) | · | 34
Cn1c(N)c(C(=O)Cn2nnc3ccccc3c2=O)c(=O)n(C)c1=O | · | –
CC(C)C(=O)Nc1cccc(NC(=S)NC(=O)/C=C/c2ccco2)c1 | – | –
O=C(c1cc2c(=O)[nH]c3ccccc3c2s1)N1CCN(c2ccc(F)cc2)CC1 | – | –
O=C(c1cc2c(=O)[nH]c3ccccc3c2s1)N1CCCC1 | 58 | ·
CN(C)/C=C/C=C1/CCc2ccccc2C1=O | -3.8 | –
CCN(CC)c1ccc(/C=C2\CCc3ccccc3C2=O)cc1 | – | ·
Cc1cccc(-c2nc3nc(C)cc(N(CCO)Cc4ccccc4)n3n2)c1 | – | –
CC(=O)C1=C(C)OC(N)=C(C#N)C1c1cccs1 (stereo not drawn) | – | ·
N#CC1=C(N)SC(N)=C(C#N)C1c1cccc(C(F)(F)F)c1 | -83 | –
N#CC1=C(N)SC(N)=C(C#N)C1c1cccs1 | -54 | –
N#CC1=C(N)SC(N)=C(C#N)C1c1ccc(O)cc1 | -74 | –
CCOC(=O)C1=C(C)OC(N)=C(C#N)C1c1cccc(C(F)(F)F)c1 (stereo not drawn) | – | ·
CC(C)c1ccc(C2C(C#N)=C(N)SC(N)=C2C#N)cc1 | · | –
CCn1nc(C)c2c1c(=O)n(Cc1ccccc1)c(=O)n2Cc1ccccc1F | – | –
C=CCn1c(NCc2ccccc2Cl)nc2ccccc21 | – | –
SMILES | GIV Gai3 FP | HCMV NEC inh
O=C(O)C(Cc1ccc(O)cc1)N=Cc1cccc2ccccc12 (stereo not drawn) | · | 95
O=C(O)C(Cc1ccccc1)N=Cc1c(O)c2ccccc2oc1=O (stereo not drawn) | – | –
COc1ccc(-n2ccc(=O)c(-c3nc(-c4cc(OC)cc(OC)c4)no3)n2)cc1 | – | ·
Cc1cccc(NC(=O)CSc2ccc(-c3sc(-c4ccccc4)nc3C)nn2)c1 | – | –
N#CC1=C(N)SC(N)=C(C#N)C1c1cc2c(cc1Cl)OCO2 | -0.4 | –
CCc1ccc(C2C(C#N)=C(N)Oc3cc4c(cc32)OCO4)cc1 (stereo not drawn) | – | ·
Cc1sc(-c2cc(C(F)(F)F)on2)cc1S(=O)(=O)Nc1cccc(Cl)c1C | – | ·
CC(C)Cn1c(N2CCN(C(=O)c3sc4ccccc4c3Cl)CC2)nc2ccccc21 | – | –
COc1cccc(Cn2ccn(Cc3ccccc3)c(=O)c2=O)c1 | – | –
CCCC(=O)Nc1cccn(Cc2cccc(OC)c2)c1=O | – | 50
Cc1ccccc1-c1cc2n(C)c(C)c(CCC(=O)Nc3ccc4c(c3)OCCO4)c(=O)n2n1 | – | ·
O=C(Nc1ccccc1)Nc1nc(CC(=O)N2CCCC2)cs1 | – | –
CC(C1CC1)N(Cc1ccccc1)S(=O)(=O)c1cn(C)c(=O)n(C)c1=O (stereo not drawn) | · | –
CN(C)c1ccc(/C=C2/N=C(c3cccs3)OC2=O)cc1 | · | –
CN(C)c1ccc(/C=C2\N=C(c3ccc(Br)o3)OC2=O)cc1 | -56 | –
COc1ccc(Cc2nnc3sc(-c4cnccn4)nn23)cc1 | – | –
CCCN1CC(CSC)C[C@@H]2c3cccc4[nH]cc(c34)C[C@H]21 (stereo partly drawn) | · | 50
N#CCc1c(C#N)c(N)nc(N2CCN(S(=O)(=O)c3ccccc3)CC2)c1C#N | · | –
N#CCc1c(C#N)c(N)nc(N2CCc3ccccc32)c1C#N | · | 35
Cc1nc2cccc(C(=O)N3CCCCCC3)c2o1 | – | –
CC(C)c1ccc(Nc2nn3c(=O)c4ccccc4nc3s2)cc1 | – | 38
COc1ccc(Nc2nn3c(=O)c4ccccc4nc3s2)cc1 | · | –
O=c1nc2sc3[nH]c(=O)sc3cc-2s1 | -47 | –
O=c1[nH]c2ccc(NS(=O)(=O)c3cnc[nH]3)cc2s1 | – | –
Cn1c(=O)n(CCC(=O)N2CCCC2)c(=O)c2cc(S(=O)(=O)NCC3CCCO3)ccc21 (stereo not drawn) | – | ·
CN(C)c1ccc2c3c(cccc13)C(=O)N(c1ccccc1)C2=O | – | –

High-throughput results: PubChem BioAssay, ICCB-Longwood Screening Facility, Harvard Medical School
